AlphaSeq binding of Ab-14 heavy chain variants to a spike HR2 peptide

Values reported by Li et al. 2023, doi:10.1038/s41467-023-39022-2 (FLAb copy).

Target: peptide PDVDLGDISGINAS, taken from heptad repeat 2 (HR2) of SARS-CoV-2 spike.

Parent scFv Ab-14: VH joined to VL by three GGGGS repeats. Changes lie in the heavy chain CDRs alone.
VH: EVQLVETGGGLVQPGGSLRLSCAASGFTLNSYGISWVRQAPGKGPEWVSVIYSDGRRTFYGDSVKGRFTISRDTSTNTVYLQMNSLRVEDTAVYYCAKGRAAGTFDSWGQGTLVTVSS
VL: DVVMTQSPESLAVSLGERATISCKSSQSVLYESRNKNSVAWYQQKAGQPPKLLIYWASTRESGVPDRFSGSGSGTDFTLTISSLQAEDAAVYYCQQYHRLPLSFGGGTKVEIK

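The starting antibody came from a phage panning campaign against this peptide. The variants were designed computationally from a first round of random CDR variants and then made and measured. Their group label is 14H_En_Gen (En: ensemble of fine-tuned language models; Gen: genetic algorithm). AlphaSeq pools MATa yeast showing the antibodies with MATalpha yeast showing the peptide. The frequency of each diploid, read from paired DNA barcodes, reflects how well the two displayed proteins bind. The ratio of observed to expected reads was calibrated, replicate by replicate, on BCL2-family standards whose Kd was known from biolayer interferometry. Each pool was mated in six replicate cultures.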

Each variant is given by its three heavy chain CDRs, as the data file delimits them; those of the parent are GFTLNSYGIS, VIYSDGRRTFYGDSVK, GRAAGTFDS. Values are log10 of the apparent Kd in nM; lower means stronger binding. A mean of the replicates is given; it leaves out those without a signal. "ND" marks a missing value. The strain was present, yet no cells mated with the target were sequenced in that replicate, which points to weak or no binding. Of ten entries with the parent sequence, four were seen in most replicates (averages 0.34 to 2.37), three in one and three in none, so single entries are noisy. The range of this assay differs from that of the first round, and the authors advise against merging the two. In the paper, a design with two or fewer of six values counts as a poor binder. Three control strains display no target. For all heavy chain designs, 1% of the pairings with them gave a signal, with a median of 2.08 and one signal in twenty below 0.84, so weak values seen in few replicates may be background. For each scFv, signals with the empty controls are counted beside the result, with their mean in brackets.

CDR-H1,CDR-H2,CDR-H3,"replicates, log10 nM","log10 Kd (nM), mean",signal with controls
GFDLDEYGIS,VIYADGVRTAYADSVK,GNVAGTFDA,-0.38 -0.66 -0.64 -0.89 -1.03 -0.67,-0.71,0 of 18
GFDLNEYGIS,VIYADGVRTAYTDSVK,GENAGTFDV,-0.01 0.01 -0.67 0.20 -0.17 1.00,0.06,0 of 18
GFDLNEYGIS,VIYADGQRTAYADKVK,GNVAGTFDL,-0.59 -0.51 -0.28 -0.69 -0.47 -0.56,-0.52,0 of 18
GFDLDEYGIS,VIYADGKRTAYADSVK,GNVAGTFDV,-0.08 -0.97 -1.21 -1.24 -0.46 0.07,-0.65,0 of 18
GFDLDEYGIS,VIYADGQRTAYADSVK,GEVAGTFDV,0.18 0.58 -0.31 0.67 0.27 0.80,0.36,0 of 18
GFDLDEYGIS,VIYADGKRTAYTDSVK,GNVAGTFDM,-0.51 -0.43 -0.56 -0.73 -0.44 -0.51,-0.53,0 of 18
GFDLNEYGIS,VIYADGKRTYYADSVK,GNVAGTFDQ,-0.06 -0.66 -0.53 -0.58 -0.51 -0.48,-0.47,0 of 18
GFDLNEYGIS,VIYADGMRTAYLDSVK,GNVAGTFDV,-0.49 -0.79 -0.87 -0.79 -0.69 -0.93,-0.76,1 of 18 (0.22)
GFDLNEYGIS,VIYADGRRTAYVDSVK,GNEAGTFDV,-1.09 0.33 -0.23 -0.72 -0.58 -0.10,-0.40,0 of 18
GFDLNEYGIS,VIYADGVRTAYADSVK,GNIAGTFDI,-0.25 -0.36 -0.57 -0.61 -0.62 -0.38,-0.47,0 of 18
GFDLNEYGIS,VIYADGQRTSYADSVK,GEVAGTFDV,1.52 2.24 2.06 0.88 ND 0.90,1.52,0 of 18
GFDLNEYGIS,VIYADGVRTSYADSVK,GENAGTFDL,ND ND ND ND ND ND,ND,0 of 18
GFDLDEYGIS,VIYADGRRTAYIDSVK,GENAGTFDV,0.24 0.29 -0.47 0.07 -0.30 0.13,-0.01,0 of 18
GFDLNEYGIS,VIYADGMRTAYVDSVK,GNQAGTFDL,0.03 0.48 -0.25 -0.30 -0.12 -0.32,-0.08,1 of 18 (2.62)
GFDLNEYGIS,VIYADGVRTAYADSVK,GGNAGTFDM,0.10 -0.13 -0.14 -0.33 -0.22 -0.19,-0.15,0 of 18
GFDLNEYGIS,VIYADGMRTAYADSVK,GANAGTFDM,-0.85 -0.84 -0.97 -0.83 -0.86 -0.98,-0.89,1 of 18 (0.66)
GFDLNEYGIS,VIYADGMRTAYTDNVK,GEVAGTFDQ,-0.75 -1.19 -1.43 -0.67 -2.15 -1.36,-1.26,0 of 18
GFDLNEYGIS,VIYADGSRKVYADSVK,GNVAGTFDV,-0.33 -0.58 -0.71 -0.94 -0.46 -0.52,-0.59,0 of 18
GFDLNEYGIS,VIYADGMRTAYSDSVK,GETAGTFDM,-0.69 -0.15 -0.49 0.04 -0.88 -0.60,-0.46,1 of 18 (0.64)
GFDLNEYGIS,VIYADGMRTAYAEDVK,GNVAGTFDV,-0.16 -0.46 -0.53 -0.83 -0.30 -0.46,-0.46,0 of 18
GFDLNEYGIS,VIYADGKRTAYTDSVK,GNVAGTFDL,-0.30 -0.40 0.05 -0.10 -0.02 -0.18,-0.16,0 of 18
GFDLDEYGIS,VIYADGQRTAYTDSVK,GNVAGTFDM,-0.55 -0.39 -0.61 -0.51 -0.45 -0.17,-0.45,0 of 18
GFDLNEYGIS,VIYADGKRTAYSDSVK,GNTAGTFDM,-0.34 0.32 0.00 -0.72 -0.23 -0.15,-0.19,0 of 18
GFDLDEYGIS,VIYADGMRTAYADKVK,GNVAGTFDT,0.52 0.32 -0.14 -0.02 0.56 0.48,0.29,1 of 18 (2.91)
GFDLNEYGIS,VIYADGQRTAYSDSVK,GNQAGTFDL,-0.62 -0.32 -0.69 -0.37 0.04 -0.03,-0.33,0 of 18
GFDLDEYGIS,VIYADGMRTAYADDVK,GNNAGTFDI,0.06 0.28 0.00 -0.02 -0.09 -0.01,0.04,1 of 18 (1.16)
GFDLNEYGIS,VIYADGVRTFYADSVK,GNVAGTFDT,ND ND ND ND ND ND,ND,0 of 18
GFNLDEYGIS,VIYADGRRTAYADSVK,GEVAGTFDL,-0.19 0.41 -0.12 -0.25 -0.08 -0.23,-0.08,0 of 18
GFDLNEYGIS,VIYADGMRTMYADSVK,GENAGTFDV,-0.32 -0.17 -0.49 -0.50 -0.30 -0.04,-0.30,0 of 18
GFDLNEYGIS,VIYADGVRTAYSDSVK,GVNAGTFDV,-0.74 -0.57 -0.64 -0.71 -0.51 -0.34,-0.58,0 of 18
GFDLNEYGIS,VIYADGMRTAYSDNVK,GQVAGTFDV,-0.41 -0.51 -0.47 -0.93 -1.02 -0.41,-0.63,0 of 18
GFDLNEYGIS,VIYADGMRTAYSDSVK,GKVAGTFDV,-0.69 -0.77 -0.57 -0.77 -1.05 -0.79,-0.77,1 of 18 (2.63)
GFDLDEYGIS,VIYADGQRTAYADSVK,GNQAGTFDV,ND ND ND ND ND ND,ND,0 of 18
GFDLDEYGIS,VIYADGQRTAYADDVK,GNNAGTFDV,-0.54 -0.69 -0.25 -0.64 -0.29 0.00,-0.40,0 of 18
GFDLNEYGIS,VIYADGVRTAYADSVK,GNAAGTFDV,-1.27 -0.63 -0.64 -1.39 -1.18 0.00,-0.85,0 of 18
GFDLNEYGIS,VIYADGMRTAYADSVK,GEVAGTFVQ,0.00 0.02 -0.18 -0.44 -0.02 -0.26,-0.14,0 of 18
GFDLNEYGIS,VIYADGMRTAYSDSVK,GNTAGTFDQ,-0.71 -0.90 -0.82 -0.86 -0.71 -0.82,-0.80,0 of 18
GFDLDEYGIS,VIYADGMRTAYSDSVK,GGNAGTFDT,-0.20 -0.47 -0.64 -0.38 -0.66 -0.49,-0.47,0 of 18
GFDLDEYGIS,VIYADGKRTVYADSVK,GENAGTFDV,0.05 0.07 0.06 0.14 0.07 0.20,0.10,0 of 18
GFDLNEYGIS,VIYADGMRTFYADNVK,GENAGTFDV,0.12 0.15 -0.16 -0.16 -0.24 -0.01,-0.05,1 of 18 (2.24)
GFDLDEYGIS,VIYADGRRTAYADDVK,GENAGTFDL,-0.18 -0.03 -0.73 -0.07 -0.25 -0.27,-0.26,0 of 18
GFDLDEYGIS,VIYADGSRTFYADSVK,GENAGTFDV,-0.63 -0.26 0.47 -0.22 -0.82 -0.15,-0.27,0 of 18
GFDLNEYGIS,VIYADGVRTYYADDVK,GNVAGTFDV,-0.11 -0.13 -0.12 0.63 0.41 0.10,0.13,0 of 18
GFDLNEYGIS,VIYADGRRTAYIDSVK,GNQAGTFDV,-0.66 -1.09 -1.22 -0.85 -1.51 -0.79,-1.02,0 of 18

The first 3 variants above that were never detected:

{"CDR-H1": "GFDLNEYGIS", "CDR-H2": "VIYADGVRTSYADSVK", "CDR-H3": "GENAGTFDL", "replicates, log10 nM": "ND ND ND ND ND ND", "log10 Kd (nM), mean": "ND", "signal with controls": "0 of 18"}
{"CDR-H1": "GFDLNEYGIS", "CDR-H2": "VIYADGVRTFYADSVK", "CDR-H3": "GNVAGTFDT", "replicates, log10 nM": "ND ND ND ND ND ND", "log10 Kd (nM), mean": "ND", "signal with controls": "0 of 18"}
{"CDR-H1": "GFDLDEYGIS", "CDR-H2": "VIYADGQRTAYADSVK", "CDR-H3": "GNQAGTFDV", "replicates, log10 nM": "ND ND ND ND ND ND", "log10 Kd (nM), mean": "ND", "signal with controls": "0 of 18"}